In paper PMC4255142 (Bioorganic & medicinal chemistry letters, 2014):

Target: T1, holocarboxylase synthetase (HLCS) (Homo sapiens, UniProt P50747)
T1 sequence (P50747 1-726): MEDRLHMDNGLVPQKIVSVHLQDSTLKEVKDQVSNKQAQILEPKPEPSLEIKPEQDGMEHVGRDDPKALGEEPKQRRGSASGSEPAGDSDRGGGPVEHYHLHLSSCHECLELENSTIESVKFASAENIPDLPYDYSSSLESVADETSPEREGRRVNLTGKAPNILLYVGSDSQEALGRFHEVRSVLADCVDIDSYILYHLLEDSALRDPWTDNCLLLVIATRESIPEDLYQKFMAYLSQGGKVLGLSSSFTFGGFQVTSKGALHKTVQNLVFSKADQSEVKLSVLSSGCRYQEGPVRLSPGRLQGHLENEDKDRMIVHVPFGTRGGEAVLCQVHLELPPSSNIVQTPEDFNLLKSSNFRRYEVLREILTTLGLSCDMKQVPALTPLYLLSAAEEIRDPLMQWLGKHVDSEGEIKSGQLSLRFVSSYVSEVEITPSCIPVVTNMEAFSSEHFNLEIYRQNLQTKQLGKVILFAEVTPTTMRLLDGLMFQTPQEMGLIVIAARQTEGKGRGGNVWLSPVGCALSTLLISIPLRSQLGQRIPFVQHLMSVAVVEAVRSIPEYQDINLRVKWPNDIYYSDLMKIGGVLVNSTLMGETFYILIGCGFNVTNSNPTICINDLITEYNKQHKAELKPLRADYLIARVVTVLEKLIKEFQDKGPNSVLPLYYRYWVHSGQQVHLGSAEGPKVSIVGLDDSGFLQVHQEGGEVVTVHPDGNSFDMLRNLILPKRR
Experiment: Inhibition of HLCS-catalysed biotinylation of recombinant p67
Assay type: biochemical

**Q.** What does the source list for `Nc1ncnc2c1ncn2[C@@H]1O[C@H](COP(=O)(O)OCCCCC[C@@H]2SC[C@@H]3NC(=O)N[C@@H]32)[C@@H](O)[C@H]1O` [biotinol-5'-AMP, biotinol-5′-AMP, reference compound]?
**A.** IC50: 7 µM; Ki: 7 µM
